Each structure is given as a SMILES string.

The chains behind the UniProt entries cited, without tags or fusion partners.
UniProt P35222, whole entry: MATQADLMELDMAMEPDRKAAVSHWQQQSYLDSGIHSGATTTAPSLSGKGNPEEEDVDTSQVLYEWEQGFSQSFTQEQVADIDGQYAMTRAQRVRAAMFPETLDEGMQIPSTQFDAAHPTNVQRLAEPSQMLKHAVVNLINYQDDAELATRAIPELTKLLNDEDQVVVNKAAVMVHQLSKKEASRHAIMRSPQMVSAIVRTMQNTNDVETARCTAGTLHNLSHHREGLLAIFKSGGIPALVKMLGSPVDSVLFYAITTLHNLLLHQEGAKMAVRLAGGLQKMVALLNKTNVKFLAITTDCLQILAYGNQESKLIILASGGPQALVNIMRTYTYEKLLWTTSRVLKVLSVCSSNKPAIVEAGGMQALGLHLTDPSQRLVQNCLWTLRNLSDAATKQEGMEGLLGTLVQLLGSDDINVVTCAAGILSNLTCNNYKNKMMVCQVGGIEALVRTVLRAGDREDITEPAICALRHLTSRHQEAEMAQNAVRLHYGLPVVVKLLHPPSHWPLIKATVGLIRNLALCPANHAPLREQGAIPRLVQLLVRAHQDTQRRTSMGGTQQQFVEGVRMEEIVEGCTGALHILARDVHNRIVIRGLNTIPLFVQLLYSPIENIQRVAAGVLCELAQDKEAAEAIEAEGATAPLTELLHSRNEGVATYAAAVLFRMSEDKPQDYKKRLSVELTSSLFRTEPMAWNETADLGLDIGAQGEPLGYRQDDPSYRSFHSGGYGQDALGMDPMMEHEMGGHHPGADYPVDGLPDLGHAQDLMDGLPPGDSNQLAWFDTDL

In the experiment the target is T1, full-length B-Catenin (Uniprot ID P35222) (Homo sapiens, UniProt P35222).
T1 construct: 10 nM full-length B-Catenin (Uniprot ID P35222)
The experiment in a line: biochemical. The format is binding. To be noted: beta-Catenin FP IC50 (nM), competition fluorescence polarization. In general terms: Fluorescence polarisation rises when a labelled molecule tumbles more slowly, as on binding a larger partner.
As a reminder, the IC50 is the point on the concentration scale where inhibition reaches its midpoint. The low end stands for higher potency, the high end for lower potency. The compound `CC(=O)N1CCC[C@]12CC=CCCCC1(CCCC=CCCCOC(=O)N3CC[C@@]4(C3)NC(=O)[C@H](CC(=O)NCCCC[C@@H](C(N)=O)NC(=O)[C@H](Cc3csc5ccccc35)NC(=O)[C@H](Cc3ccsc3)NC4=O)NC(=O)[C@H](Cc3ccccc3)NC(=O)[C@H](C)NC(=O)[C@H](C)NC(=O)[C@H](Cc3cccc(C(=O)O)c3)NC(=O)[C@H](CC(=O)O)NC1=O)NC(=O)[C@H](CC(C)(C)C)NC(=O)[C@H](CC(=O)O)NC2=O` (single isomer, unassigned) [I-35, Ac-PL3-Asp-Npg-B5-Asp-3COOHF-Ala-Ala-Phe-AsnR*3-PyrS2-3Thi-BztA-Lys*3-NH2] registered an IC50 of 750 to 1000 nM.
Under `CC(=O)N1CCC[C@]12CC=CCCCC1(CCCC=CCCCOC(=O)N3CC[C@@]4(C3)NC(=O)[C@H](CC(=O)NCCCC[C@@H](C(N)=O)NC(=O)[C@H](Cc3csc5ccccc35)NC(=O)[C@H](Cc3ccsc3)NC4=O)NC(=O)[C@H](Cc3ccccc3)NC(=O)[C@H](C)NC(=O)[C@H](C)NC(=O)[C@H](Cc3cccc(C(=O)O)c3)NC(=O)[C@H](CC(=O)O)NC1=O)NC(=O)[C@H](CC(C)(C)C)NC(=O)[C@H](CC(=O)O)NC2=O` (single isomer, unassigned) [I-36, Ac-PL3-Asp-Npg-B5-Asp-3COOHF-Ala-Ala-Phe-AsnR*3-PyrS2-3Thi-BztA-Lys*3-NH2] stands 200 to 750 nM; under `CC(=O)N1CCC[C@]12CC=CCCCC1(CCCC=CCCCOC(=O)N3CC[C@@]4(C3)NC(=O)[C@H](CCCCNC(=O)CC[C@@H](C(=O)N[C@@H](CC(C)C)C(N)=O)NC(=O)[C@H](Cc3csc5ccccc35)NC(=O)[C@H](Cc3ccccc3C(F)(F)F)NC4=O)NC(=O)[C@H](Cc3ccccc3)NC(=O)[C@H](C)NC(=O)[C@H](CC(C)(C)C)NC(=O)[C@H](Cc3cccc(C(=O)O)c3)NC(=O)[C@H](CC(=O)O)NC1=O)NC(=O)[C@H](CC(C)(C)C)NC(=O)[C@H](CC(=O)O)NC2=O` (single isomer, unassigned) [I-109, Ac-PL3-Asp-Npg-B5-Asp-3COOHF-Npg-Ala-Phe-Lys*3-PyrS2-2F3MeF-BztA-GlnR*3-Leu-NH2], 50 to 200 nM; under `CC(=O)N1CCC[C@]12CC=CCCCC1(CCCC=CCCCOC(=O)N3CC[C@@]4(C3)NC(=O)[C@H](CCCCNC(=O)CC[C@@H](C(=O)N[C@@H](C)C(N)=O)NC(=O)[C@H](Cc3csc5ccccc35)NC(=O)[C@H](Cc3ccccc3C(F)(F)F)NC4=O)NC(=O)[C@H](Cc3ccccc3)NC(=O)[C@H](C)NC(=O)[C@H](C)NC(=O)[C@H](CN(CC(=O)O)CC(F)(F)F)NC(=O)[C@H](CC(=O)O)NC1=O)NC(=O)[C@H](CC(C)(C)C)NC(=O)[C@H](CC(N)=O)NC2=O` (single isomer, unassigned) [I-114, Ac-PL3-Asn-Npg-B5-Asp-TfeGA-Ala-Ala-Phe-Lys*3-PyrS2-2F3MeF-BztA-GlnR*3-Ala-NH2], 50 to 200 nM.
On to `CC(=O)N1CCC[C@]12CC=CCCCC1(CCCC=CCCCOC(=O)N3CC[C@@]4(C3)NC(=O)[C@H](CCCCNC(=O)CC[C@@H](C(=O)N[C@@H](C)C(N)=O)NC(=O)[C@H](Cc3csc5ccccc35)NC(=O)[C@H](Cc3ccccc3C(F)(F)F)NC4=O)NC(=O)[C@H](Cc3ccccc3)NC(=O)[C@H](C)NC(=O)[C@H](C)NC(=O)[C@H](CN(CC(=O)O)CC(F)(F)F)NC(=O)[C@H](CC(=O)O)NC1=O)NC(=O)[C@H](CC(C)(C)C)NC(=O)[C@H](CCO)NC2=O` (single isomer, unassigned) [I-115, Ac-PL3-Hse-Npg-B5-Asp-TfeGA-Ala-Ala-Phe-Lys*3-PyrS2-2F3MeF-BztA-GlnR*3-Ala-NH2], for which the IC50 is over 1000 nM.
Regarding `CC(=O)N1CCC[C@]12CC=CCCCC1(CCCC=CCCCOC(=O)N3CC[C@@]4(C3)NC(=O)[C@H](CCCCNC(=O)CC[C@@H](C(=O)N[C@@H](C)C(N)=O)NC(=O)[C@H](Cc3csc5ccccc35)NC(=O)[C@H](Cc3ccccc3C(F)(F)F)NC4=O)NC(=O)[C@H](Cc3ccccc3)NC(=O)[C@H](C)NC(=O)[C@H](C)NC(=O)[C@H](CN(CC(=O)O)CC(F)(F)F)NC(=O)[C@H](CCO)NC1=O)NC(=O)[C@H](CC(C)(C)C)NC(=O)[C@H](CC(=O)O)NC2=O` (single isomer, unassigned) [I-118, Ac-PL3-Asp-Npg-B5-Hse-TfeGA-Ala-Ala-Phe-Lys*3-PyrS2-2F3MeF-BztA-GlnR*3-Ala-NH2], the IC50 is over 1000 nM.
Take `CC(=O)N1CCC[C@]12CC=CCCCC1(CCCC=CCCCOC(=O)N3CC[C@@]4(C3)NC(=O)[C@H](CCCCNC(=O)CC[C@@H](C(=O)N[C@@H](C)C(N)=O)NC(=O)[C@H](Cc3csc5ccccc35)NC(=O)[C@H](Cc3ccsc3)NC4=O)NC(=O)[C@H](Cc3ccccc3)NC(=O)[C@H](C)NC(=O)C3(CCNCC3)NC(=O)[C@H](Cc3cccc(C(=O)O)c3)NC(=O)[C@H](CC(=O)O)NC1=O)NC(=O)[C@H](CC(C)(C)C)NC(=O)[C@H](CC(=O)O)NC2=O` (single isomer, unassigned) [I-384, Ac-PL3-Asp-Npg-B5-Asp-3COOHF-Acp-Ala-Phe-Lys*3-PyrS2-3Thi-BztA-GlnR*3-Ala-NH2]: the IC50 was under 50 nM.
As for `CC(=O)N1CCC[C@]12CC=CCCCC1(CCCC=CCCCOC(=O)N3CC[C@@]4(C3)NC(=O)[C@H](CCCCn3cc(nn3)CC[C@@H](C(=O)N[C@@H](C)C(N)=O)NC(=O)[C@H](Cc3csc5ccccc35)NC(=O)[C@H](Cc3ccccc3)NC4=O)NC(=O)[C@H](Cc3ccccc3)NC(=O)[C@H](C)NC(=O)C(C)(C)NC(=O)[C@H](Cc3cccc(C(=O)O)c3)NC(=O)[C@H](CC(=O)O)NC1=O)NC(=O)[C@H](CC(C)(C)C)NC(=O)[C@H](CC(=O)O)NC2=O` (single isomer, unassigned) [I-419, Ac-PL3-Asp-Npg-B5-Asp-3COOHF-Aib-Ala-Phe-TriAzLys*3-PyrS2-Phe-BztA-sAbu*3-Ala-NH2], the IC50 is under 50 nM.
Turning to `CC(=O)N1CCC[C@]12CC=CCCCC1(CCCC=CCCCOC(=O)N3CC[C@@]4(C3)NC(=O)[C@H](CCCCNC(=O)CC[C@@H](C(=O)N[C@@H](C)C(N)=O)NC(=O)[C@H](Cc3csc5ccccc35)NC(=O)[C@H](Cc3ccsc3)NC4=O)NC(=O)[C@H](Cc3ccccc3)NC(=O)C(C)(C)NC(=O)[C@H](C)NC(=O)[C@H](Cc3cccc(C(=O)O)c3)NC(=O)[C@H](CC(=O)O)NC1=O)NC(=O)[C@H](CC(C)(C)C)NC(=O)[C@H](CC(=O)O)NC2=O` (single isomer, unassigned) [I-442, Ac-PL3-Asp-Npg-B5-Asp-3COOHF-Ala-Aib-Phe-Lys*3-PyrS2-3Thi-BztA-GlnR*3-Ala-NH2], the 50% inhibitory concentration (IC50) fell in the range of 50 to 200 nM.
`CC(=O)N1CCC[C@]12CC=CCCCC1(CCCC=CCCCOC(=O)N3CC[C@@]4(C3)NC(=O)[C@H](CCCCNC(=O)CC[C@@H](C(=O)N[C@H](C)C(=O)N[C@@H](CO)C(N)=O)NC(=O)[C@H](Cc3csc5ccccc35)NC(=O)[C@H](Cc3ccsc3)NC4=O)NC(=O)[C@H](Cc3ccccc3)NC(=O)[C@H](C)NC(=O)C(C)(C)NC(=O)[C@H](Cc3cccc(C(=O)O)c3)NC(=O)[C@H](CC(=O)O)NC1=O)NC(=O)[C@H](CC(C)(C)C)NC(=O)[C@H](CC(=O)O)NC2=O` (single isomer, unassigned) [I-460, Ac-PL3-Asp-Npg-B5-Asp-3COOHF-Aib-Ala-Phe-Lys*3-PyrS2-3Thi-BztA-GlnR*3-dAla-Ser-NH2]: the IC50 was under 50 nM.
Consider `CC(=O)N1CCC[C@]12CC=CCCCC1(CCCC=CCCCOC(=O)N3CC[C@@]4(C3)NC(=O)[C@H](CCCCNC(=O)CC[C@@H](C(=O)N[C@@H](C)C(N)=O)NC(=O)[C@H](Cc3ccc(Cl)c(Cl)c3)NC(=O)[C@H](Cc3ccccc3)NC4=O)NC(=O)[C@H](Cc3ccc4ccccc4c3)NC(=O)[C@H](C)NC(=O)C(C)(C)NC(=O)[C@H](Cc3cccc(C(=O)O)c3)NC(=O)[C@H](CC(=O)O)NC1=O)NC(=O)[C@H](CC(C)(C)C)NC(=O)[C@H](CC(=O)O)NC2=O` (single isomer, unassigned) [I-481, Ac-PL3-Asp-Npg-B5-Asp-3COOHF-Aib-Ala-2NapA-Lys*3-PyrS2-Phe-34ClF-GlnR*3-Ala-NH2], for which the 50% inhibitory concentration (IC50) was under 50 nM.
In turn, `CCCC[C@@H]1NC(=O)[C@]23CCN(C2)C(=O)OCCCC=CCCCC2(CCCC=CC[C@]4(CCCN4C(C)=O)C(=O)N[C@@H](CC(=O)O)C(=O)N[C@@H](CC(C)(C)C)C(=O)N2)C(=O)N[C@@H](CC(=O)O)C(=O)N[C@@H](Cc2cccc(C(=O)O)c2)C(=O)NC(C)(C)C(=O)N[C@@H](C)C(=O)N[C@@H](Cc2ccccc2)C(=O)N[C@@H](CCCCNC(=O)CC[C@@H](C(=O)N[C@@H](C)C(N)=O)NC(=O)[C@H](Cc2ccc4ccccc4c2)NC1=O)C(=O)N3` (single isomer, unassigned) [I-489, Ac-PL3-Asp-Npg-B5-Asp-3COOHF-Aib-Ala-Phe-Lys*3-PyrS2-nLeu-2NapA-GlnR*3-Ala-NH2] yielded a 50% inhibitory concentration (IC50) of under 50 nM.
For the compound `CCCC[C@@H]1NC(=O)[C@]23CCN(C2)C(=O)OCCCC=CCCCC2(CCCC=CC[C@]4(CCCN4C(C)=O)C(=O)N[C@@H](CC(=O)O)C(=O)N[C@@H](CC(C)(C)C)C(=O)N2)C(=O)N[C@@H](CC(=O)O)C(=O)N[C@@H](Cc2cccc(C(=O)O)c2)C(=O)NC(C)(C)C(=O)N[C@@H](C)C(=O)N[C@@H](Cc2ccccc2)C(=O)N[C@@H](CCCCNC(=O)CC[C@@H](C(=O)N[C@@H](C)C(N)=O)NC(=O)[C@H](Cc2ccc4ccccc4c2)NC1=O)C(=O)N3` (single isomer, unassigned) [I-490, Ac-PL3-Asp-Npg-B5-Asp-3COOHF-Aib-Ala-Phe-Lys*3-PyrS2-nLeu-2NapA-GlnR*3-Ala-NH2], the IC50 lay in the range of 50 to 200 nM.
Compound `CC(=O)N1CCC[C@]12CC=CCCCC1(CCCC=CCCCOC(=O)N3CC[C@@]4(C3)NC(=O)[C@H](CCCCNC(=O)CC[C@@H](C(=O)N[C@@H](C)C(N)=O)NC(=O)[C@H](Cc3ccc5ccccc5c3)NC(=O)[C@H](CC3CCCC3)NC4=O)NC(=O)[C@H](Cc3ccccc3)NC(=O)[C@H](C)NC(=O)C(C)(C)NC(=O)[C@H](Cc3cccc(C(=O)O)c3)NC(=O)[C@H](CC(=O)O)NC1=O)NC(=O)[C@H](CC(C)(C)C)NC(=O)[C@H](CC(=O)O)NC2=O` (single isomer, unassigned) [I-491, Ac-PL3-Asp-Npg-B5-Asp-3COOHF-Aib-Ala-Phe-Lys*3-PyrS2-CypA-2NapA-GlnR*3-Ala-NH2] returned a 50% inhibitory concentration (IC50) of 50 to 200 nM.

The values are drawn from patent US20240360179A1, “STAPLED PEPTIDES AND METHODS THEREOF” (FOG PHARMACEUTICALS, INC., priority 2021, published 2024).
